Several values for one entry are separate records, joined by “and”; a condition that tells them apart may be missing. Equal entries are not always repeated.
Test system: human hepatocytes
Assay: Uptake of pitavastatin and eltrombopag in cryopreserved human hepatocytes (oil spin method), comeasurement, micro‐rate constant mechanistic model
Assay type: in vitro ADME
Procedure: Human hepatocytes were obtained from BioIVT (Brussels, Belgium; lot number: LYB; 10 donor LiverPool (8 Caucasians, 1 African American, and 1 Hispanic) and thawed according to supplier guidelines in Leibovitz L15 medium. Hepatocytes were kept on ice prior to use and were used within 3 hours of defrosting.
Hepatocytes (viability 84–87%) were preincubated in Leibovitz L15 medium at 1.5 × 10^6 cells for 15 minutes at 37 °C with either 0.1% DMSO or 45 nmol/mL eltrombopag. Incubations were started by the addition of pitavastatin (0.3–100 nmol/mL, 1 × 10^6 cells, 0.35% DMSO, 30 nmol/mL eltrombopag final), and 100 µL samples taken at 0.25–30 minutes. Cells were separated using an oil spin method similar to the literature. ^11 , ^17 After separation, the tubes were frozen on dry ice and the bottom layer was cut off. Pitavastatin and eltrombopag were extracted in a stop solution prior to ultra‐performance liquid chromatography–high‐resolution mass spectrometry analysis (see the Supplemental Material for full experimental and sample extraction methods).
The bottom layer concentrations of pitavastatin and eltrombopag were converted to a cellular concentration using a cellular volume (V cell) of 3 µL/1 × 10^6 human hepatocytes: ^18 (1) cellnmol/mL=Bottom layer×15.3μL/Vcell/100 where V cell /1 × 10^5 cells was 0.3 µL, and the volume of the bottom layer of cesium chloride was 15 µL. A dilution factor of 100 was used to scale from pmol/mL/1 × 10^5 cells to nmol/mL/1 × 10^6 cells.
The final chosen mechanistic model (model 1 with the comeasurement of pitavastatin and eltrombopag; Table 1 ) was based on the outcome of the structural identifiability analysis and goodness‐of‐fit statistics (Bayesian information criterion, and the weighted Bayesian information criterion, ^21 and the sum of the relative mean square root error (percentage RMSRE); see Supplemental Material ). Model 1 was described using a set of ODEs representing the following: the amount of pitavastatin (X = substrate (S) or pitavastatin (P)) and eltrombopag (X = inhibitor (I) or eltrombopag (E)) in the medium (X 1), the amount bound to transporter (X 2), and the intracellular amount (X 3). Passive rate constants for movement into and out of the cell (k f.X and k bX, respectively) as well as uptake transporter‐mediated rate constants for association to the transporter (k aX) and dissociation (k dX) and translocation (k tX) from the transporter into the medium and cell, respectively. Metabolism of pitavastatin in the cell was through an elimination rate constant (k e). The sets of ODEs for all the models (models 1–4; Table 1 ) tested for structural identifiability and used for parameter estimation are included in the Supplemental Material .
Parameter estimation was conducted within Monolix 2018 R2 (Lixoft, Antony, France) for each concentration and experiment as an individual data set, where to ensure positivity, a log‐normal distribution was assumed for each parameter, with a proportional residual error model for the observations. Because of the large number of parameters to be estimated in the combined pitavastatin and eltrombopag mechanistic model, the initial estimates for pitavastatin and eltrombopag each were obtained for the micro‐rate constant models (no macro‐rate constant estimates could be obtained for eltrombopag alone for transporter‐mediated uptake).
Hepatocyte Incubations. 0.4 mL of hepatocytes was diluted 1:1 with Leibovitz either containing DMSO blank (0.1 % for pitavastatin or 0.25 % for eltrombopag alone) or eltrombopag at 90 nmol/mL and pre-incubated at 1.5x10^6 cells/mL for 15 min at 37 °C in 7 mL glass scintillation vials (PerkinElmer, Vasby, Sweden) in a shaking water bath (Grant Instruments, Cambridge, UK). Pitavastatin was dissolved and serially diluted in DMSO to give 0.12, 0.4, 1.2, 4, 12 and 40 µmol/mL, and then diluted 400-fold into 37 °C Leibovitz L15 medium. […]

SMILES: O=C(O)C[C@H](O)C[C@H](O)/C=C/c1c(C2CC2)nc2ccccc2c1-c1ccc(F)cc1 [pitavastatin, pitavastatin calcium]
- DV = amount of measured pitavastatin and/or eltrombopag (ID 31, pitavastatin AMT 30 nmol at TIME 15, TIME 25 min): 59.98 nmol
- DV = amount of measured pitavastatin and/or eltrombopag (ID 31, pitavastatin AMT 30 nmol at TIME 15, TIME 45 min): 87.76 nmol
- DV (pitavastatin uptake into hepatocytes) (ID 32, AMT 30, TIME 15.25, DVID 2): 62.23
- DV (pitavastatin uptake into hepatocytes) (ID 32, AMT 30, TIME 15.5, DVID 2): 75.26
- DV (pitavastatin uptake into hepatocytes) (ID 32, AMT 30, TIME 16, DVID 2): 114.22
- DV (pitavastatin uptake into hepatocytes) (ID 32, AMT 30, TIME 17, DVID 2): 132.18
- DV (pitavastatin uptake into hepatocytes) (ID 32, AMT 30, TIME 20, DVID 2): 159.89
- DV (pitavastatin uptake into hepatocytes) (ID 32, AMT 30, TIME 25, DVID 2): 163.93
- DV (pitavastatin uptake into hepatocytes) (ID 32, AMT 30, TIME 45, DVID 2): 176.26
- DV = amount of measured pitavastatin and/or eltrombopag (ID 32, pitavastatin AMT 30 nmol at TIME 15, TIME 15.25 min): 62.23 nmol
- DV = amount of measured pitavastatin and/or eltrombopag (ID 32, pitavastatin AMT 30 nmol at TIME 15, TIME 15.5 min): 75.26 nmol
- DV = amount of measured pitavastatin and/or eltrombopag (ID 32, pitavastatin AMT 30 nmol at TIME 15, TIME 16 min): 114.22 nmol
- DV = amount of measured pitavastatin and/or eltrombopag (ID 32, pitavastatin AMT 30 nmol at TIME 15, TIME 17 min): 132.18 nmol
- DV = amount of measured pitavastatin and/or eltrombopag (ID 32, pitavastatin AMT 30 nmol at TIME 15, TIME 20 min): 159.89 nmol
- DV = amount of measured pitavastatin and/or eltrombopag (ID 32, pitavastatin AMT 30 nmol at TIME 15, TIME 25 min): 163.93 nmol
- DV = amount of measured pitavastatin and/or eltrombopag (ID 32, pitavastatin AMT 30 nmol at TIME 15, TIME 45 min): 176.26 nmol
- DV (pitavastatin uptake into hepatocytes) (ID 33, AMT 30, TIME 15.25, DVID 2): 26.77
- DV (pitavastatin uptake into hepatocytes) (ID 33, AMT 30, TIME 15.5, DVID 2): 38.61
- DV (pitavastatin uptake into hepatocytes) (ID 33, AMT 30, TIME 16, DVID 2): 45.83
- DV (pitavastatin uptake into hepatocytes) (ID 33, AMT 30, TIME 17, DVID 2): 61.09
- DV (pitavastatin uptake into hepatocytes) (ID 33, AMT 30, TIME 20, DVID 2): 81.99
- DV (pitavastatin uptake into hepatocytes) (ID 33, AMT 30, TIME 25, DVID 2): 73.56
- DV (pitavastatin uptake into hepatocytes) (ID 33, AMT 30, TIME 45, DVID 2): 78.92
- DV = amount of measured pitavastatin and/or eltrombopag (ID 33, pitavastatin AMT 30 nmol at TIME 15, TIME 15.25 min): 26.77 nmol
- DV = amount of measured pitavastatin and/or eltrombopag (ID 33, pitavastatin AMT 30 nmol at TIME 15, TIME 15.5 min): 38.61 nmol
- DV = amount of measured pitavastatin and/or eltrombopag (ID 33, pitavastatin AMT 30 nmol at TIME 15, TIME 16 min): 45.83 nmol
- DV = amount of measured pitavastatin and/or eltrombopag (ID 33, pitavastatin AMT 30 nmol at TIME 15, TIME 17 min): 61.09 nmol
- DV = amount of measured pitavastatin and/or eltrombopag (ID 33, pitavastatin AMT 30 nmol at TIME 15, TIME 20 min): 81.99 nmol
- DV = amount of measured pitavastatin and/or eltrombopag (ID 33, pitavastatin AMT 30 nmol at TIME 15, TIME 25 min): 73.56 nmol
- DV = amount of measured pitavastatin and/or eltrombopag (ID 33, pitavastatin AMT 30 nmol at TIME 15, TIME 45 min): 78.92 nmol
- DV (pitavastatin uptake into hepatocytes) (ID 34, AMT 100, TIME 15.25, DVID 2): 83.21
- DV (pitavastatin uptake into hepatocytes) (ID 34, AMT 100, TIME 15.5, DVID 2): 84.23
- DV (pitavastatin uptake into hepatocytes) (ID 34, AMT 100, TIME 16, DVID 2): 149.55
- DV (pitavastatin uptake into hepatocytes) (ID 34, AMT 100, TIME 17, DVID 2): 162.02
- DV (pitavastatin uptake into hepatocytes) (ID 34, AMT 100, TIME 20, DVID 2): 195.87
- DV (pitavastatin uptake into hepatocytes) (ID 34, AMT 100, TIME 25, DVID 2): 258.45
- DV (pitavastatin uptake into hepatocytes) (ID 34, AMT 100, TIME 45, DVID 2): 241.53
- DV = amount of measured pitavastatin and/or eltrombopag (ID 34, pitavastatin AMT 100 nmol at TIME 15, TIME 15.25 min): 83.21 nmol
- DV = amount of measured pitavastatin and/or eltrombopag (ID 34, pitavastatin AMT 100 nmol at TIME 15, TIME 15.5 min): 84.23 nmol
- DV = amount of measured pitavastatin and/or eltrombopag (ID 34, pitavastatin AMT 100 nmol at TIME 15, TIME 16 min): 149.55 nmol
- DV = amount of measured pitavastatin and/or eltrombopag (ID 34, pitavastatin AMT 100 nmol at TIME 15, TIME 17 min): 162.02 nmol
- DV = amount of measured pitavastatin and/or eltrombopag (ID 34, pitavastatin AMT 100 nmol at TIME 15, TIME 20 min): 195.87 nmol
- DV = amount of measured pitavastatin and/or eltrombopag (ID 34, pitavastatin AMT 100 nmol at TIME 15, TIME 25 min): 258.45 nmol
- DV = amount of measured pitavastatin and/or eltrombopag (ID 34, pitavastatin AMT 100 nmol at TIME 15, TIME 45 min): 241.53 nmol
- DV (pitavastatin uptake into hepatocytes) (ID 36, AMT 100, TIME 15.25, DVID 2): 56.55
- DV (pitavastatin uptake into hepatocytes) (ID 36, AMT 100, TIME 15.5, DVID 2): 71.62
- DV (pitavastatin uptake into hepatocytes) (ID 36, AMT 100, TIME 16, DVID 2): 101.21
- DV (pitavastatin uptake into hepatocytes) (ID 36, AMT 100, TIME 17, DVID 2): 112.18
- DV (pitavastatin uptake into hepatocytes) (ID 36, AMT 100, TIME 20, DVID 2): 166.1
- DV (pitavastatin uptake into hepatocytes) (ID 36, AMT 100, TIME 25, DVID 2): 175.81
- DV (pitavastatin uptake into hepatocytes) (ID 36, AMT 100, TIME 45, DVID 2): 174.89
- DV = amount of measured pitavastatin and/or eltrombopag (ID 36, pitavastatin AMT 100 nmol at TIME 15, TIME 15.25 min): 56.55 nmol
- DV = amount of measured pitavastatin and/or eltrombopag (ID 36, pitavastatin AMT 100 nmol at TIME 15, TIME 15.5 min): 71.62 nmol
- DV = amount of measured pitavastatin and/or eltrombopag (ID 36, pitavastatin AMT 100 nmol at TIME 15, TIME 16 min): 101.21 nmol
- DV = amount of measured pitavastatin and/or eltrombopag (ID 36, pitavastatin AMT 100 nmol at TIME 15, TIME 17 min): 112.18 nmol
- DV = amount of measured pitavastatin and/or eltrombopag (ID 36, pitavastatin AMT 100 nmol at TIME 15, TIME 20 min): 166.1 nmol
- DV = amount of measured pitavastatin and/or eltrombopag (ID 36, pitavastatin AMT 100 nmol at TIME 15, TIME 25 min): 175.81 nmol
- DV = amount of measured pitavastatin and/or eltrombopag (ID 36, pitavastatin AMT 100 nmol at TIME 15, TIME 45 min): 174.89 nmol
- DV = amount of measured pitavastatin (pitavastatin alone, AMT 0.3 nmol, TIME 15.25 min (pitavastatin dosed at 15 min)): 1 nmol and 0.64 nmol
- DV = amount of measured pitavastatin (pitavastatin alone, AMT 0.3 nmol, TIME 15.33 min (pitavastatin dosed at 15 min)): 0.44 nmol
- DV = amount of measured pitavastatin (pitavastatin alone, AMT 0.3 nmol, TIME 17 min (pitavastatin dosed at 15 min)): 3.74 nmol and 2.84 nmol and 2.05 nmol
- DV = amount of measured pitavastatin (pitavastatin alone, AMT 0.3 nmol, TIME 20 min (pitavastatin dosed at 15 min)): 6.25 nmol and 3.66 nmol and 3.37 nmol
- DV = amount of measured pitavastatin (pitavastatin alone, AMT 0.3 nmol, TIME 25 min (pitavastatin dosed at 15 min)): 6.32 nmol and 3.52 nmol and 3.44 nmol
- DV = amount of measured pitavastatin (pitavastatin alone, AMT 1 nmol, TIME 15.25 min (pitavastatin dosed at 15 min)): 1.64 nmol and 3.21 nmol and 2.1 nmol
- DV = amount of measured pitavastatin (pitavastatin alone, AMT 1 nmol, TIME 45 min (pitavastatin dosed at 15 min)): 9.06 nmol and 14.63 nmol and 8.88 nmol
- DV = amount of measured pitavastatin (pitavastatin alone, AMT 3 nmol, TIME 20 min (pitavastatin dosed at 15 min)): 20.91 nmol and 34.93 nmol and 23.79 nmol
- DV = amount of measured pitavastatin (pitavastatin alone, AMT 3 nmol, TIME 25 min (pitavastatin dosed at 15 min)): 23.83 nmol and 41.51 nmol and 27.45 nmol
- DV = amount of measured pitavastatin (pitavastatin alone, AMT 10 nmol, TIME 45 min (pitavastatin dosed at 15 min)): 51.06 nmol and 92.94 nmol and 58.31 nmol
- DV = amount of measured pitavastatin (pitavastatin alone, AMT 30 nmol, TIME 15.5 min (pitavastatin dosed at 15 min)): 39.76 nmol and 78.62 nmol and 44.72 nmol
- DV = amount of measured pitavastatin (pitavastatin alone, AMT 100 nmol, TIME 17 min (pitavastatin dosed at 15 min)): 165.82 nmol
- DV = amount of measured pitavastatin (with eltrombopag, pitavastatin AMT 1 nmol, TIME 17 min (pitavastatin dosed at 15 min)): 2.36 nmol and 4.35 nmol and 3.12 nmol
- DV = amount of measured pitavastatin (with eltrombopag, pitavastatin AMT 10 nmol, TIME 16 min (pitavastatin dosed at 15 min)): 13.7 nmol
- DV = amount of measured pitavastatin (with eltrombopag, pitavastatin AMT 10 nmol, TIME 17 min (pitavastatin dosed at 15 min)): 20.56 nmol
- DV = amount of measured pitavastatin (with eltrombopag, pitavastatin AMT 10 nmol, TIME 20 min (pitavastatin dosed at 15 min)): 22.94 nmol
- DV = amount of measured pitavastatin (with eltrombopag, pitavastatin AMT 10 nmol, TIME 25 min (pitavastatin dosed at 15 min)): 25.07 nmol
- DV = amount of measured pitavastatin (with eltrombopag, pitavastatin AMT 10 nmol, TIME 45 min (pitavastatin dosed at 15 min)): 27.58 nmol

— PMC7179958, “Prediction of Clinical Transporter‐Mediated Drug–Drug Interactions via Comeasurement of Pitavastatin and Eltrombopag in Human Hepatocyte Models” (CPT: Pharmacometrics & Systems Pharmacology, 2020)
